From US20060293223A1 (Eli Lilly and Company Patent Division, priority 2003, published 2006)

Sequences of proteins named here, by UniProt entry; tags and fusion partners are left off. A change or cut given only in a name is not applied to a line headed by its entry.
UniProt P41968: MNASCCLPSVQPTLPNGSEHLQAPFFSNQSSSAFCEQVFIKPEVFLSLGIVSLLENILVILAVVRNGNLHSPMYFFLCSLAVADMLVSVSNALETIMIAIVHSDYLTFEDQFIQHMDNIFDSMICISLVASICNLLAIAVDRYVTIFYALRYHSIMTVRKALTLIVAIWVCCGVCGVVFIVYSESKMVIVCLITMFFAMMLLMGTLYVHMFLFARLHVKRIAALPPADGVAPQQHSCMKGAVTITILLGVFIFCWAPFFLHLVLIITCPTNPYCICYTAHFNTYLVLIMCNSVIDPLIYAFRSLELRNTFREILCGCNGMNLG

The substances below were run against human MC3R (Homo sapiens, UniProt P41968) (assay: Melanocortin receptor whole cell cAMP accumulation assay, MC3 (Table 2, MC3 Potency, printed as Ki)). Conditions: HEK 293 cells.
Type: cell-based

Compared with “Ac-cyclo[hCys-His-D-Phe-Arg-Trp-Cys]-OH [Compound 138]”, “Ac-Tyr-Cit-cyclo[Cys-Glu-(1-Me-His)-D-Phe-Arg-Trp-Cys]-NH2 [Compound 125]” is higher in Ki: 112 nM for the first, at least 500 nM for the second. The first binds more tightly here.

Compared with “N-cyclopentanecarbonyl-cyclo[hCys-His-D-Phe-Arg-Trp-penicillamine]-NH2 [Compound 171]”, “Ac-Orn-cyclo[Cys-Glu-His-D-Phe-Arg-Trp-Cys]-NH2 [Compound 62]” is 55-fold higher in Ki: 2.5 nM for the first, 137 nM for the second. The first binds more tightly here.

“Ac-Arg-cyclo[Cys-Glu-His-D-Phe-Arg-Trp-Cys]-OH [Compound 49]” and “Ac-Tyr-Arg-cyclo[Cys-Glu-(1-pyrazolyl-Ala)-D-Phe-Arg-Trp-Cys]-NH2 [Compound 102]” cannot be ordered by Ki: at least 500 nM for the first, at least 500 nM for the second.

Compared with “N-cyclohexanecarbonyl-cyclo[hCys-His-D-Phe-Arg-Trp-Cys]-NH2 [Compound 144]”, “Ac-Tyr-Arg-cyclo[Cys-Glu-His-D-Phe-Arg-Trp-Cys]-Lys-Pro alcohol [Compound 122]” is 1.8-fold higher in Ki: 2.23 nM for the first, 3.96 nM for the second. The first binds more tightly here.

Compared with “Ac-Tyr-Arg-cyclo[Cys-Glu-(5-Me-D-His)-D-Phe-Arg-Trp-Cys]-NH2 [Compound 98]”, “Ac-Tyr-Arg-cyclo[Cys-Glu-(β-(thien-2-yl)-Ala)-D-Phe-Arg-Trp-Cys]-NH2 [Compound 111]” is higher in Ki: 254 nM for the first, at least 500 nM for the second. The first binds more tightly here.

“Ac-cyclo[Cys-His-D-Phe-Arg-Trp-Cys]-NH2 [Compound 1]” and “cyclo[3-thiopropionyl-His-D-Phe-Arg-Trp-hCys]-NH2 [Compound 179]” cannot be ordered by Ki: at least 500 nM for the first, at least 500 nM for the second.

Going from “N-phenylsulfonyl-cyclo[hCys-His-D-Phe-Arg-Trp-Cys]-NH2 [Compound 150]” to “N-(2-naphthalenesulfonylamino-4-oxo-butyryl)-D-Arg-cyclo[Cys-Glu-His-D-Phe-Arg-Trp-Cys]-NH2 [Compound 65]”, the Ki rises from 36.9 nM to 73.1 nM (2-fold). The first binds more tightly here.

“N-glutaryl-Tyr-Arg-cyclo[Cys-Glu-His-D-Phe-Arg-Trp-Cys]-NH2 [Compound 75]” and “Ac-Tyr-Arg-cyclo[Cys-Gly-His-D-Phe-Arg-Trp-Cys]-NH2 [Compound 12]” are within 1.5-fold of each other in Ki: 143 nM for the first, 122 nM for the second.

First: Ac-Arg-cyclo[hCys-His-D-Phe-Arg-Trp-hCys]-NH2 [Compound 195]
Second: Ac-Tyr-D-Arg-cyclo[Cys-Glu-His-D-Phe-Arg-Trp-Cys]-NH2 [Compound 79]
The Ki of the first is 3.2-fold lower: 14.1 nM for the first, 44.5 nM for the second. The first binds more tightly here.

Going from “Ac-Tyr-Arg-cyclo[Cys-Glu-(1-Me-D-His)-D-Phe-Arg-Trp-Cys]-NH2 [Compound 82]” to “N-cyclopentanecarbonyl-cyclo[hCys-His-D-Phe-Arg-Trp-Cys]-NH2 [Compound 143]”, the Ki falls from at least 500 nM to 0.6 nM. The second binds more tightly here.

“Ac-Tyr-Arg-cyclo[Cys-Glu-(1-Me-D-His)-(4-Cl-D-Phe)-Arg-Trp-Cys]-NH2 [Compound 88]” and “Ac-Tyr-Arg-cyclo[Cys-Glu-(4-phenyl-1H-imidazol-2-yl-D-Ala)-D-Phe-Arg-Trp-Cys]-NH2 [Compound 104]” cannot be ordered by Ki: at least 500 nM for the first, at least 500 nM for the second.

First: Ac-Arg-cyclo[Cys-His-(4-F-D-Phe)-Arg-Trp-hCys]-NH2 [Compound 190]
Second: Ac-cyclo[Cys-Asp-His-D-Phe-Arg-Trp-Cys]-NH2 [Compound 6]
The Ki of the first is 9-fold lower: 33 nM for the first, 296 nM for the second. The first binds more tightly here.

Going from “Ac-Lys-cyclo[Cys-Glu-His-D-Phe-Arg-Trp-Cys]-NH2 [Compound 58]” to “N-benzoyl-cyclo[hCys-His-D-Phe-Arg-Trp-penicillamine]-NH2 [Compound 173]”, the Ki falls from 107 nM to 9.65 nM (11-fold).

“Ac-Arg-cyclo[hCys-His-D-Phe-Arg-Trp-Cys]-OH [Compound 159]” and “Ac-Tyr-(1-β-hArg)-cyclo[Cys-Glu-His-D-Phe-Arg-Trp-Cys]-NH2 [Compound 127]” are within 1.5-fold of each other in Ki: 19.6 nM for the first, 16.9 nM for the second.

Going from “Ac-Tyr-Arg-cyclo[Cys-Glu-(β-((1-benzyl)-1,2,4-triazol-3-yl))-D-Ala)-D-Phe-Arg-Trp-Cys]-NH2 [Compound 109]” to “Ac-cyclo[Cys-His-(4-F-D-Phe)-Arg-Trp-hCys]-NH2 [Compound 184]”, the Ki falls from 333 nM to 128 nM (2.6-fold). The second binds more tightly here.

Going from “3-(4-methylbenzoyl)propionyl-Arg-cyclo[Cys-Glu-His-D-Phe-Arg-Trp-Cys]-NH2 [Compound 67]” to “Ac-cyclo[hCys-His-(β-cyclohexyl-D-Ala)-Arg-Trp-Cys]-NH2 [Compound 167]”, the Ki rises from 20.4 nM to at least 500 nM. The first binds more tightly here.

First: Ac-cyclo[hCys-His-(4-F-D-Phe)-Arg-Trp-Cys]-NH2 [Compound 139]
Second: Ac-Tyr-Arg-cyclo[Cys-His-His-D-Phe-Arg-Trp-Cys]-NH2 [Compound 13]
The Ki of the first is 3.7-fold lower: 8.46 nM for the first, 31.6 nM for the second. The first binds more tightly here.

Going from “Ac-Tyr-Arg-cyclo[Cys-Glu-His-D-Phe-Arg-Trp-Cys]-Lys-Pro-NH2 [Compound 121]” to “Ac-Tyr-hArg-cyclo[Cys-Glu-His-D-Phe-Arg-Trp-Cys]-NH2 [Compound 126]”, the Ki rises from 4.08 nM to 91 nM (22-fold).

“Ac-Arg-cyclo[hCys-His-D-Phe-Arg-Trp-Cys]-NH2 [Compound 158]” and “3-guanidinopropionyl-cyclo[hCys-His-D-Phe-Arg-Trp-Cys]-NH2 [Compound 148]” are within 1.5-fold of each other in Ki: 1.91 nM for the first, 2.86 nM for the second.

“Ac-hArg-cyclo[Cys-Glu-His-D-Phe-Arg-Trp-Cys]-NH2 [Compound 54]” and “4-guanidinobutyryl-cyclo[Cys-Glu-His-D-Phe-Arg-Trp-Cys]-NH2 [Compound 41]” are within 1.5-fold of each other in Ki: 53.5 nM for the first, 62.5 nM for the second.

Going from “Arg-cyclo[hCys-His-D-Phe-Arg-Trp-Cys]-NH2 [Compound 153]” to “Ac-D-Arg-cyclo[Cys-Glu-His-D-Phe-Arg-Trp-Cys]-NH2 [Compound 52]”, the Ki rises from 4.11 nM to 66.3 nM (16-fold). The first binds more tightly here.

Compared with “Ac-cyclo[hCys-His-D-Phe-Arg-Trp-penicillamine]-NH2 [Compound 168]”, “Ac-cyclo[hCys-His-(4-Cl-D-Phe)-Arg-Trp-Cys]-NH2 [Compound 140]” is 34-fold lower in Ki: 64.4 nM for the first, 1.87 nM for the second. The second binds more tightly here.

First: Ac-Tyr-Arg-cyclo[Cys-Glu-His-(4-Cl-D-Phe)-Arg-Trp-Cys]-NH2 [Compound 86]
Second: 5-guanidinovaleryl-cyclo[Cys-Glu-His-D-Phe-Arg-Trp-Cys]-NH2 [Compound 42]
The Ki of the first is 15-fold lower: 2.91 nM for the first, 43.2 nM for the second.

Going from “Ac-Tyr-Arg-cyclo[Cys-Glu-(1-Me-D-His)-(4-OMe-D-Phe)-Arg-Trp-Cys]-NH2 [Compound 95]” to “Ac-Tyr-Arg-cyclo[Cys-Arg-His-D-Phe-Arg-Trp-Cys]-NH2 [Compound 4]”, the Ki falls from at least 500 nM to 29.7 nM. The second binds more tightly here.

Compared with “D-Arg-cyclo[Cys-Glu-His-D-Phe-Arg-Trp-Cys]-NH2 [Compound 46]”, “Tyr-Arg-cyclo[Cys-Glu-His-D-Phe-Arg-Trp-Cys]-Glu-NH2 [Compound 71]” is 1.8-fold lower in Ki: 65.7 nM for the first, 36.2 nM for the second.

First: Ac-nLeu-cyclo[hCys-His-D-Phe-Arg-Trp-Cys]-NH2 [Compound 160]
Second: Ac-Cya-Arg-cyclo[Cys-Ala-His-D-Phe-Arg-Trp-Cys]-NH2 [Compound 2]
The Ki of the first is 450-fold lower: 0.28 nM for the first, 125 nM for the second. The first binds more tightly here.

First: Ac-Tyr-Arg-cyclo[Cys-Glu-(3-Me-His)-D-Phe-Arg-Trp-Cys]-NH2 [Compound 96]
Second: Ac-Tyr-Val-cyclo[Cys-Glu-His-D-Phe-Arg-Trp-Cys]-NH2 [Compound 130]
The Ki of the first is 2.7-fold lower: 85.3 nM for the first, 229 nM for the second. The first binds more tightly here.

Going from “N-cyclobutanecarbonyl-cyclo[hCys-His-D-Phe-Arg-Trp-Cys]-NH2 [Compound 142]” to “N-valeryl-cyclo[Cys-Glu-His-D-Phe-Arg-Trp-Cys]-NH2 [Compound 39]”, the Ki rises from 1.96 nM to 234 nM (120-fold).

Going from “Ac-Tyr-Arg-cyclo[Cys-Glu-His-D-Phe-Arg-Trp-Cys]-Ser-Pro alcohol [Compound 120]” to “Ac-Tyr-Arg-cyclo[Cys-Glu-His-D-Phe-Arg-Trp-hCys]-NH2 [Compound 192]”, the Ki rises from 13.5 nM to at least 500 nM. The first binds more tightly here.

Compared with “3-guanidinopropionyl-cyclo[Cys-Glu-His-D-Phe-Arg-Trp-Cys]-NH2 [Compound 40]”, “Ac-cyclo[Cys-Glu-(1-Me-His)-D-Phe-Arg-Trp-Cys]-NH2 [Compound 34]” is higher in Ki: 62.3 nM for the first, at least 500 nM for the second.

First: Ac-D-Arg-cyclo[Cys-Cya-His-D-Phe-Arg-Trp-Cys]-NH2 [Compound 27]
Second: Arg-cyclo[hCys-(1-Me-D-His)-D-Phe-Arg-Trp-Cys]-NH2 [Compound 157]
The Ki of the first is 4.5-fold lower: 79.2 nM for the first, 355 nM for the second.

Compared with “3-(4-hydroxyphenyl)propionyl-Arg-cyclo[Cys-Glu-His-D-Phe-Arg-Trp-Cys]-NH2 [Compound 66]”, “Ac-cyclo[hCys-His-D-Phe-Arg-Trp-Cys]-NH2 [Compound 137]” is 4-fold lower in Ki: 38.9 nM for the first, 9.77 nM for the second.

Going from “Ac-Tyr-Arg-cyclo[Cys-Asp-His-D-Phe-Arg-Trp-Cys]-NH2 [Compound 7]” to “Ac-Tyr-Cit-cyclo[Cys-Glu-His-D-Phe-Arg-Trp-Cys]-NH2 [Compound 124]”, the Ki rises from 41.6 nM to 329 nM (7.9-fold).

Compared with “Ac-Tyr-Arg-cyclo[Cys-Cya-His-D-Phe-Arg-Trp-Cys]-NH2 [Compound 28]”, “Ac-Tyr-Arg-cyclo[Cys-Glu-His-D-Phe-Arg-Trp-Cys]-glycinol [Compound 114]” is 1.5-fold lower in Ki: 71.3 nM for the first, 46.3 nM for the second.

Compared with “N-phenylsulfonyl-cyclo[hCys-His-D-Phe-Arg-Trp-penicillamine]-NH2 [Compound 175]”, “Ac-Tyr-Arg-cyclo[Cys-Met-His-D-Phe-Arg-Trp-Cys]-NH2 [Compound 18]” is 1.7-fold lower in Ki: 40.3 nM for the first, 23.3 nM for the second.

Going from “Ac-Tyr-Arg-cyclo[Cys-Glu-(β-(1,2,4-triazol-3-yl))-Ala)-D-Phe-Arg-Trp-Cys]-NH2 [Compound 106]” to “Ac-cyclo[Cys-Glu-His-(4-Cl-D-Phe)-Arg-Trp-Cys]-NH2 [Compound 32]”, the Ki falls from 320 nM to 17.1 nM (19-fold).

Compared with “N-benzoyl-cyclo[hCys-His-D-Phe-Arg-Trp-Cys]-NH2 [Compound 146]”, “Ac-Tyr-Arg-cyclo[Cys-Glu-(1-Me-His)-(4-F-D-Phe)-Arg-Trp-Cys]-NH2 [Compound 84]” is 66-fold higher in Ki: 3.28 nM for the first, 218 nM for the second. The first binds more tightly here.

Going from “Ac-nLeu-cyclo[Cys-Glu-His-D-Phe-Arg-Trp-Cys]-Ser-Pro-NH2 [Compound 61]” to “N-cyclopropanecarbonyl-cyclo[hCys-His-D-Phe-Arg-Trp-Cys]-NH2 [Compound 141]”, the Ki falls from 37.1 nM to 3.69 nM (10-fold).

Going from “Ac-Tyr-Arg-cyclo[hCys-His-D-Phe-Arg-Trp-Cys]-OH [Compound 165]” to “Ac-cyclo(S—CH2—S)[Cys-His-D-Phe-Arg-Trp-Cys]-NH2 [Compound 198]”, the Ki rises from 63.8 nM to at least 500 nM.

Compared with “Ac-cyclo[Cys-Glu-His-(4-Br-D-Phe)-Arg-Trp-Cys]-NH2 [Compound 33]”, “cyclo[Cys-His-D-Phe-Arg-Trp-hCys]-NH2 [Compound 180]” is higher in Ki: 10.1 nM for the first, at least 500 nM for the second. The first binds more tightly here.
